# Measured values published in patent publication US9265844B2, “Protease degradable polypeptides and uses thereof” (THE METHODIST HOSPITAL SYSTEM, priority 2010, dated 2016).
# Protein sequences, listed by entry. Tags and fused reporters are not part of them. Residues count along the entry.
# UniProt P07339, 65-412: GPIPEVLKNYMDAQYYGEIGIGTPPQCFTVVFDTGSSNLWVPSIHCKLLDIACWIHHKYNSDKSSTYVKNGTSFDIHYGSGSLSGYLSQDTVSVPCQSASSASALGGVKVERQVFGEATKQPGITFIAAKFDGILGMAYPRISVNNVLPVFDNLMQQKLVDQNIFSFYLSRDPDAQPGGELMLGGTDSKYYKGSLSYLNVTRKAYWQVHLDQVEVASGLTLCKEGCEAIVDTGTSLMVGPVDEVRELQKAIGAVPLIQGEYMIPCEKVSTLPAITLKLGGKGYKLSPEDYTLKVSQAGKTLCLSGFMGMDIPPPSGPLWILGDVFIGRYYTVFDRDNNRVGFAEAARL
# Experiments:
# Cath D = Cath D (Homo sapiens, UniProt P07339); experiment: Inhibition of substrate e hydrolysis by pepstatin A (Cath D); type: biochemical; conditions: 1 μL of 1 mM pepstatin A/methanol
# Description: (§1) Stock solution of pepstatin A was prepared by dissolving 2 mg pepstatin A in 1 mL of 10% (v/v) acetic acid in methanol. Substrate e solution (10 μL, 200 μM) in 50 mM sodium acetate buffer (pH 4) containing 150 mM NaCl, 46 pmol of Cathepsin E or D was added followed by 1 μL of 1 mM pepstatin A/methanol. Two sets of control experiments were performed simultaneously by replacing the enzymes with assay buffer and by using methanol instead of pepstatin A/methanol. All assays were performed in triplicate in 96 well assay plates and the change in the fluorescence intensity was monitored over time using λex=340 nm and λem=405 nm at 37° C.
# Cath E = molecular target: T1, Cath E (Homo sapiens, UniProt P14091); experiment: Inhibition of substrate e hydrolysis by pepstatin A (Cath E); type: biochemical; set-up: purchased Calbiochem, EMD Bioscience (Gibbstown, N.J.); conditions: 1 μL of 1 mM pepstatin A/methanol
# T1 sequence (P14091 54-396): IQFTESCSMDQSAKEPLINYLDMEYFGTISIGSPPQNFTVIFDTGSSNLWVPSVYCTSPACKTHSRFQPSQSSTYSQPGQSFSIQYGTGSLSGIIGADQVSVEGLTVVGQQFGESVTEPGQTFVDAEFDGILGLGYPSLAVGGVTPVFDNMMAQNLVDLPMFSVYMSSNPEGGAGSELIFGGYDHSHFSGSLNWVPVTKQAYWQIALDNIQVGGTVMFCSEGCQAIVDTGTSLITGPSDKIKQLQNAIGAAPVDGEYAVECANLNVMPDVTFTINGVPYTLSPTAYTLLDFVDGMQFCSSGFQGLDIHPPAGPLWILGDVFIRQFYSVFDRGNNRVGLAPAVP
# Description: as §1
compound,measurement,setting,value
CC(C)CC(=O)N[C@H](C(=O)N[C@H](C(=O)N[C@@H](CC(C)C)[C@@H](O)CC(=O)N[C@@H](C)C(=O)N[C@@H](CC(C)C)[C@@H](O)CC(=O)O)C(C)C)C(C)C [pepstatin A],inhibition of fluorescence signal of substrate e,Cath D,complete inhibition
same,inhibition of fluorescence signal of substrate e,Cath E,complete inhibition
